Test: Solubility of indicator in polymonoguanadine fixer

O=S(=O)([O-])c1cc(Nc2nc(Nc3ccccc3)nc(N(CCO)CCO)n2)ccc1/C=C/c1ccc(Nc2nc(Nc3ccccc3)nc(N(CCO)CCO)n2)cc1S(=O)(=O)[O-].[Na+].[Na+] [FluorescentBrightner28]
Solubility @ 0.01 % (0.01% in 4 wt % polymonoguanadine fixer): No
Solubility @ 0.1% (0.1% in 4 wt % polymonoguanadine fixer): No
